# Data as given in PubChem BioAssay AID784 (The Scripps Research Institute Molecular Screening Center, 2007).
# By UniProt entry, the sequences of proteins in these tests, tags left out.
# UniProt P04062, whole entry L483P: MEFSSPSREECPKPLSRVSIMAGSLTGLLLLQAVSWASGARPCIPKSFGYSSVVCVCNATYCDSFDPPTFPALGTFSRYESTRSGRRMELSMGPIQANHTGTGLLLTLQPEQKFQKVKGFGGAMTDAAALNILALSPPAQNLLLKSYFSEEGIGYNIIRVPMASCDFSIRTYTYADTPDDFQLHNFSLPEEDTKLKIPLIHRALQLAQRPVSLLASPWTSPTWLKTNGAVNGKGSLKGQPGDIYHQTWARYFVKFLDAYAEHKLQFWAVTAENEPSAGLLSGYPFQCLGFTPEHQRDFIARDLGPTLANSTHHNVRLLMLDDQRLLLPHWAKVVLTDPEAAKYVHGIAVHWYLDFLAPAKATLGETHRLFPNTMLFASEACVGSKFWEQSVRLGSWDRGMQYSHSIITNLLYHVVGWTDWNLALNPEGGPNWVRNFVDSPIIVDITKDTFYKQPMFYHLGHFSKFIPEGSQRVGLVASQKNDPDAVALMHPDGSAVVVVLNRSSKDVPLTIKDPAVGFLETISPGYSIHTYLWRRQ
# This is a selection; strong and weak results do not stand in their true shares. Active and inactive are the calls of the source. No stated cut-off is given here; in the data, active means activation above about 65%; inactive means the rest.
# Target: Lysosomal acid glucosylceramidase (Homo sapiens) (UniProt P04062)
# Experiment: GBA activity enhancers in patient fibroblasts, primary screen, cell-based (AID 784);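 further: 0% = vehicle wells and 100% = positive control wells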
# Details: L444P Gaucher fibroblasts, 4-MU-glucoside fluorescence, 3 days; at 10 µM; stronger effect = higher value
row,Compound,activation
1,O=C(OC1CN2CCC1CC2)C1c2ccccc2Oc2ccccc21 (stereo not drawn),inactive: -25%
2,N/C(=N\O)c1c(N)no[n+]1[O-],inactive: -8.94%
3,CCOc1ncccc1C(=O)NCC1(N2CCOCC2)CCCCC1,inactive: -33.3%
